Columns and labels:
all tested HIV strains = assay: microbe, parasite or virus in culture; conditions: Human immunodeficiency virus 1, PBMC, read-out: IC50 with respect to all tested HIV strains

Cc1cn([C@H]2C[C@H](N=[N+]=[N-])[C@@H](CO)O2)c(=O)[nH]c1=O [AZT, azidothymidine]
Antiviral Index (TC50/IC50) (HIV-1 92HT599): >84.0 | concentration required to result in a 50% (TC50) inhibition of viral replication (HIV-1 92HT599): 11.9 nM | Antiviral Index (TC50/IC50) (HIV-2 CDC 310319): >174 | concentration required to achieve a 50% (TC50) inhibition of viral replication (HIV-2 CDC 310319): 5.73 nM | concentration required to achieve a 50% (TC50) inhibition of viral replication (HIV-1 MDR 769): > 1000 nM | Antiviral Index (TC50/IC50) (HIV-1 91US001): >57.5 | concentration required to achieve a 50% (TC50) inhibition of viral replication (HIV-1 91US001): 17.4 nM | Antiviral Index (TC50/IC50) (HIV-2 CBL20 H9): >10,000 | concentration required to result in a 50% (TC50) inhibition of viral replication (HIV-2 CBL20 H9): < 0.10 nM

NCC(=O)Nc1ccc(-n2nc(C(F)(F)F)cc2-c2ccc3c(ccc4ccccc43)c2)cc1 [AR-12, 2-amino-N-(4-(5-(phenanthren-2-yl)-3-(trifluoromethyl)-1H-pyrazol-1-yl)phenyl)acetamide]
Antiviral Index (TC50/IC50) (HIV-1 92HT599): 22.6 | Antiviral Index (TC50/IC50) (HIV-2 CDC 310319): 16.4 | Antiviral Index (TC50/IC50) (HIV-1 MDR 769): 19.9 | IC50 (all tested HIV strains): 240 to 510 nM | Antiviral Index (TC50/IC50) (HIV-1 91US001): 25.6 | Antiviral Index (TC50/IC50) (HIV-2 CBL20 H9): 12.0

O=C1Nc2ccc(Cl)cc2[C@@](C#CC2CC2)(C(F)(F)F)O1 [Efavirenz]
Antiviral Index (TC50/IC50) (HIV-1 MDR 769): >1,506 | concentration required to achieve a 50% (TC50) inhibition of viral replication (HIV-1 MDR 769): 0.66 nM

Cc1cccc(C)c1OCC(=O)N[C@@H](Cc1ccccc1)[C@@H](O)C[C@H](Cc1ccccc1)NC(=O)[C@H](C(C)C)N1CCCNC1=O [Lopinavir]
Antiviral Index (TC50/IC50) (HIV-1 MDR 769): >1.21 | concentration required to achieve a 50% (TC50) inhibition of viral replication (HIV-1 MDR 769): 877 nM
